Results taken from patent US20050187239A1 (priority 2002, published 2005).

Test system: gastrointestinal transit in the mouse
Details: each drug separately

CN1CC[C@]23c4c5ccc(O)c4O[C@H]2[C@@H](O)C=C[C@H]3[C@H]1C5 [Morphine, morphine]
inhibition of gastrointestinal transit, drug separately: inhibit gastrointestinal transit
